Results from PubChem BioAssay AID624467 (The Scripps Research Institute Molecular Screening Center, 2012).
The list shows a part of the results, in another mix than the full data. Active and inactive are the calls of the source.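 How the source made its calls: active means activation above the mean activation of all test compounds in the run plus 3 SD (cut at about 38% in these data); inactive means the rest.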

Chains of the proteins cited; added tags and fusions are not shown. Lines headed by an entry give the natural chain unless they say otherwise; changes in a name come on top.
UniProt Q96RJ0: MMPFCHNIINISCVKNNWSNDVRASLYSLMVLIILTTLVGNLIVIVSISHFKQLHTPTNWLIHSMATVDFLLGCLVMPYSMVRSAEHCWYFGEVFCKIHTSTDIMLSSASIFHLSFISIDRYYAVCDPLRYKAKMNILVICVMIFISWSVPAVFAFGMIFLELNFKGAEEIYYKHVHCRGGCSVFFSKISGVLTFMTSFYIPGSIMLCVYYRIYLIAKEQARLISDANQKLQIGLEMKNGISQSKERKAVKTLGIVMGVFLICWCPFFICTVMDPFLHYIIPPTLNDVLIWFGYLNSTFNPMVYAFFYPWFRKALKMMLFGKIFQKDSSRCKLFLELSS

target: Trace amine-associated receptor 1 (Homo sapiens) (UniProt Q96RJ0); assay: human TAAR1 agonists, primary screen, Fluo-8 calcium fluorescence, CHO RD-HGA16 cells (AID 624467); conditions: CHO RD-HGA16 TAAR1, Fluo-8 calcium fluorescence; at 3 µM; hits give high values; vehicle wells 0%, saturating PEA agonist 100%

SMILES | activation
COC(=O)C1(C)COP(=O)(N2CCCCCC2)OC1 (stereo unspecified) | inactive: 2.82%
O=C(OC1CN2CCC1CC2)c1cccc2[nH]cnc12 (stereo unspecified) | inactive: 4.78%
CCN(CC)C(=S)SC(NC=O)C(Cl)(Cl)Cl (stereo unspecified) | inactive: 8.53%
CC(C)NC(=O)NP(=O)(Oc1ccccc1)Oc1ccccc1 | inactive: 2.75%
Cc1c2c(nc3ccccc13)SC(C(Cl)Cl)C2 (stereo unspecified) | inactive: 22.6%
Cc1cc(=O)[nH]c(N[N+](=O)[O-])n1 | inactive: -0.71%
O=C(OC1CN2CCC1CC2)C12CC3CC(CC(C3)C1)C2 (stereo unspecified) | inactive: 16.9%
O=P1(N(CCCl)CCCl)Nc2ccccc2N1 | inactive: 0.68%
O=P1(N(CCCl)CCCl)OCCCN1CCCl (stereo unspecified) | inactive: 1.12%
COc1cc(I)ccc1[As](=O)(O)O | inactive: 3.77%
COc1ccc2nc(NP(=O)(c3ccccc3)c3ccccc3)sc2c1 | inactive: 8.66%
O=[N+]([O-])c1cc(Oc2ccc([N+](=O)[O-])cc2C(F)(F)F)cc([N+](=O)[O-])c1 | inactive: -1.08%
COc1ccc(N/C(=N/P(=O)(N2CCOCC2)N2CCOCC2)N2CCOCC2)cc1 | inactive: 2.02%
O=C(OC1CN2CCC1CC2)c1ccc(Cl)cc1 (stereo unspecified) | inactive: 6.68%
CS(=O)(=O)c1ccc(Cl)c(NC(=O)COC(=O)C(O)(c2ccccc2)c2ccccc2)c1 | inactive: 15.7%
COc1cc(C(=O)NCC2(N3CCOCC3)CCCCC2)cc(Cl)c1OC(C)C | inactive: 0.24%
O=[As](O)(O)c1cccnc1 | inactive: -0.16%
O=[As](O)(c1cccc(O)c1)c1cccc(O)c1 | inactive: 1.12%
Cc1cccc(OCC(=O)OC2CN3CCC2CC3)c1 (stereo unspecified) | inactive: 0.92%
Nc1cccc2c([As](=O)(O)O)cccc12 | inactive: 13.3%
Cc1ccc(NCCc2c([N+](=O)[O-])cc([N+](=O)[O-])cc2[N+](=O)[O-])cc1 | inactive: -1.32%
CCCOP(=S)(Nc1nc(N)cc(=O)[nH]1)OCCC | inactive: 0.02%

SMILES | activation
CCOP(=O)(Nc1cccc2ccccc12)OCC | inactive: 5.55%
COc1cc(C2NCCC3(OCCO3)C2(C)C)cc(OC)c1OC (stereo unspecified) | inactive: -0.73%
O=P(Nc1nccs1)(Oc1ccccc1)Oc1ccccc1 | inactive: 4.7%
CCOP1(=S)c2c(C)nn(CCC#N)c2N=C(c2ccccc2F)N1C (stereo unspecified) | inactive: 9.82%
Nc1ccccc1[As](=O)(O)c1ccccc1 | inactive: 4.25%
O=C(O)COc1ccc([As](=O)(O)O)cc1[N+](=O)[O-] | inactive: 0.71%
NC(=O)Nc1ccc([As](=O)(O)O)cc1 | inactive: 6.23%
CCOP1(=S)c2c(C)nn(CCC#N)c2N=C(c2ccc(F)cc2)N1C (stereo unspecified) | inactive: -0.33%
CN(C(=O)Cc1ccccc1)[C@@H]1CC[C@]2(CCCO2)C[C@H]1N1CCCC1 | inactive: -0.19%
N#CCCN(C(=O)COC(=O)C(O)(c1ccccc1)c1ccccc1)c1ccc(F)cc1 | inactive: 8.78%
CN(C(=O)Cc1ccc(Cl)c(Cl)c1)[C@H]1CC[C@@]2(CCCO2)C[C@@H]1N1CCCC1 | inactive: -0.36%
CN(C)C(=O)c1cc([N+](=O)[O-])cc2c1-c1c(cc([N+](=O)[O-])cc1[N+](=O)[O-])C2=O | inactive: 3.08%
O=[N+]([O-])c1ccc2c(c1)nnn2O | inactive: 0.72%
CC1CCC(C(C)C)C(OP(=O)(Nc2ccccn2)c2ccccc2)C1 (stereo unspecified) | inactive: 9.7%
Cc1ccc(C(=O)OC2CN3CCC2CC3)cc1 (stereo unspecified) | inactive: -1.78%
Cc1nn(-c2ccccc2)c2c1P(=O)(N1CCOCC1)N(C)C(c1ccccc1)=N2 (stereo unspecified) | inactive: 0.88%
CN(C)C1(CNC(=O)c2ccc(S(C)(=O)=O)cc2)CCCCC1 | inactive: 0.7%
CCCC1OP(=O)(Nc2ccccc2)OCC1CC (stereo unspecified) | inactive: -0.02%
O=C(/C=C/c1ccccc1)OC1CN2CCC1CC2 (stereo unspecified) | inactive: 3.28%
Cc1ccc(S(=O)(=O)N(CCCN)CCCc2c(C)nc(N)[nH]c2=O)cc1 | inactive: -0.17%
O=P1(Nc2ncccn2)COc2ccccc2OC1 | inactive: 3.54%
Nc1cccc([As](=O)(O)c2ccccc2)c1 | inactive: 2.09%

SMILES | activation
O=P1(Nc2ccc(Br)cn2)COc2ccccc2OC1 | inactive: 1.74%
NS(=O)(=O)c1cccc(NC(=O)COC(=O)C(O)(c2ccccc2)c2ccccc2)c1 | inactive: 1.14%
O=[As](O)(c1cccs1)c1cccs1 | inactive: 4.02%
Cc1ccc(OCC(=O)OC2CN3CCC2CC3)cc1 (stereo unspecified) | inactive: 7.5%
CCOP(=O)(NC(=NC(C)c1ccccc1)NC(C)c1ccccc1)OCC (stereo unspecified) | inactive: 0.49%
O=P1(Nc2ccccn2)COc2ccccc2OC1 | inactive: 10.2%
CCC1=CC2Cc3nc4ccc(Cl)cc4c(N)c3C(C1)C2 (stereo unspecified) | inactive: 9.91%
CN(CCCl)Cc1cc(Cl)c(NC2=NCCN2)c(Cl)c1 | inactive: -0.64%
CCOP(=O)(Nc1ccc(C)cn1)OCC | inactive: 0.22%
CC(C)(C)C(=O)NC(Sc1ncccn1)C(Cl)(Cl)Cl (stereo unspecified) | inactive: -0.32%
O=P1(N(CCCl)CCCl)NCCC(C(F)(F)F)O1 (stereo unspecified) | inactive: -0.25%
Clc1n[nH]nc1-c1nn[nH][15n]1 | inactive: 9.28%
COc1ccccc1CNC(=O)COC(=O)C(O)(c1ccccc1)c1ccccc1 | inactive: 4.55%
CN(C(=O)Cc1ccc(Cl)c(Cl)c1)C1CCCC[C@@H]1N1CCCC1 (stereo partly specified) | inactive: 2.23%
CC(C)/C=N\N=C(\N)N[N+](=O)[O-] | inactive: 4.17%
CN(C(=O)Cc1ccc(Cl)c(Cl)c1)[C@@H]1CCCC[C@H]1N1CCCC1 | inactive: 3.37%
CC1(CBr)Cn2c(nc3ccccc3c2=O)S1 (stereo unspecified) | inactive: 10.8%
CC(C)C(=O)NC(Sc1ccccc1)C(Cl)(Cl)Cl (stereo unspecified) | inactive: 3.08%
O=P(Nc1nccs1)(c1ccccc1)c1ccccc1 | inactive: 5.92%
c1nnnn1CCn1cnnn1 | inactive: 10.3%
O=P(Nc1ccccn1)(c1ccc(Br)cc1)c1ccc(Br)cc1 | inactive: 10.5%
CN(C)C1(CNC(=O)c2ccc(Cl)c(S(N)(=O)=O)c2)CCCCC1 | inactive: -0.22%
